From PubChem BioAssay AID540303 (National Center for Advancing Translational Sciences (NCATS), 2011) come the findings set out here.

The entries are a selection whose mix differs from that of the whole data set. Some of these compounds have results that are not shown, active ones among them. Results filed as inconclusive are left out. Activity calls are given as the source filed them. The call rests on the fitted dose curve; in most records, active means well fitted inhibition curve with a large enough effect; inconclusive means small, poorly fitted or top-dose-only effect; inactive means no such curve, though single readings can be large or run the other way; tested in mouse RAW 264.7 cells.
On the % scale 0 is the no-effect control and ±100 the full control effect.

The test can be described thus: qHTS for Inhibitors of Cell Surface uPA Generation. Further: nearly all actives have a fitted effect of over 55% in size. The note with it: cell surface uPA generation assay; at 38.3 µM (top of the series). An excerpt:
The overall objective of this project is to perform a quantitative high throughput screen (qHTS) to identify novel compounds that inhibit the generation of cell surface urokinase activity. The urokinase plasminogen activator (uPA) is one of the two primary endogenous systems that mediate plasminogen activation into plasmin. Members of this system, including uPA and its receptor (uPAR), are overexpressed in several malignant tumors. This system plays a major role in adhesion, migration, invasion and metastasis of cancer cells. Small molecule inhibitors of the uPA system will serve as probes to understand the molecular mechanisms of the uPA cascade and better understanding the microenvironmental circumstances that facilitate the activation of plasminogen by uPA, and finally may provide novel candidate agents for anticancer drug therapy.
[…] […] Upon inhibition of the uPA activation cascade, the subsequent cell surface uPA activity-dependent translocation of LF into the cytoplasm is inhibited. ATP-Lite is used to measure intracellular ATP concentrations, which remain increased if LF entry into the cytoplasm is inhibited. This validation assay was performed using a small set of validation compounds.
NIH Chemical Genomics Center [NCGC]
NIH Molecular Libraries Probe Centers Network [MLPCN]
Assay Submitter (PI): Thomas Bugge, National Institute of Dental and Craniofacial Research, NIH
Cultured RAW 264.7 were dispensed into 1536-well clear bottom, white walled tissue culture plates at a density of 4000 cells/well and were incubated overnight (12-16 h) at 37 C in a 5% CO2 incubator. Serially diluted compounds in 23 nl DMSO were added to cells. […] Compound and reagent-treated plates were incubated for 24 h at 37 C in a 5% CO2 incubator. Perkin Elmer ATPlitetrade mark 1 step (3 ul) was then added to each well. Luminescence was detected using a Perkin Elmer ViewLuxtrade mark plate reader.
1.Dispensing RAW 264.7 cells into 1536-well, white walled tissue culture plates at a density of 4000 cells/well (4 uL).
2.Incubation at 37 C in a 5% CO2 incubator overnight.
3.Serially diluting compounds (1:5 serial dilution; 0.0024 uM to […] final concentration) in 23 nl DMSO.
5.Incubating the compound and reagent-treated plates for 24 hours at 37 C in a 5% CO2 incubator.
6.Adding ATP-Lite (3 ul).
7.Reading plates by ViewLux with an exposure length of 5 seconds.
On the technique in general: qHTS replaces the single test concentration by a dilution series.
For `O=C(NCC1(N2CCCCC2)CCCCC1)c1cc(F)c(F)cc1Cl`, the activity change, negative = inhibition was inactive: 8.25%.
In the case of `C=CCN1CCN(CCOC(=O)C(O)(c2ccccc2)c2ccccc2)CC1`, the activity change, negative = inhibition is inactive: 12%.
`O=C(NCC1(N2CCCCC2)CCCCC1)c1cccc(Br)c1`: the activity change, negative = inhibition is inactive: -6.35%.
For `CCN1CCCC(OC(=O)C2(O)c3ccccc3C=Cc3ccccc32)C1` (stereo not given), the activity change, negative = inhibition is inactive: 0.386%.
In the case of `Cc1cc(C(=O)NCC2(N3CCCCC3)CCCCC2)ccc1[N+](=O)[O-]`, the activity change, negative = inhibition is inactive: 6.29%.
As to `COc1ccc(C(=O)NCC2(N(C)C)CCCCC2)cc1`, the activity change, negative = inhibition was inactive: 6.89%.
Consider `CN(C)c1ccc(C(=O)NCC2(N(C)C)CCCCC2)cc1`, for which the activity change, negative = inhibition is inactive: -4.41%.
On to `CN(C)C1CCCC1OC(=O)C(O)(c1ccccc1)c1ccccc1` (stereo not given), for which the activity change, negative = inhibition was inactive: 7.48%.
Consider `Cc1ccccc1C(=O)NCC1(N2CCCCC2)CCCCC1`, for which the activity change, negative = inhibition was inactive: 7.38%.
`CC(C)N1C(=O)CC2(CCN(CCOC(=O)C(O)(c3ccccc3)c3ccccc3)CC2)C1=O`: the activity change, negative = inhibition was inactive: -2.31%.
Consider `COc1cc(SC)ccc1C(=O)NCC1(N(C)C)CCCCC1`, for which the activity change, negative = inhibition is inactive: 13.6%.
As to `CCN(CC)CC(C)C(C)OC(=O)C(O)(c1ccccc1)c1ccccc1` (stereo not given), the activity change, negative = inhibition is inactive: -0.0686%.
With `Cc1ccc(C(=O)NCC2(N3CCCCC3)CCCCC2)cc1` the figure was inactive: -0.16%; with `O=C(NCC1(N2CCCCC2)CCCCC1)c1cc([N+](=O)[O-])ccc1Cl`, inactive: -3.29%.
Then `CN1[C@@H]2CC[C@H]1CC(OC(=O)C(O)(c1ccccc1)c1ccccc1)C2` (stereo not given in full), with inactive: 1.53%; and `COc1ccc(Br)c(C(=O)NCC2(N3CCCCC3)CCCCC2)c1`, with inactive: 10.7%; and `CN(C)c1cccc(C(=O)NCC2(N(C)C)CCCCC2)c1`, with inactive: -0.753%.
With `O=C(OCCN1CCCC1)C(O)(c1ccccc1)c1ccccc1` the figure was inactive: -2.09%.
As for `CC(C)Oc1ccc(C(=O)NCC2(N(C)C)CCCCC2)cc1`, the activity change, negative = inhibition is inactive: -0.724%.
Then `O=C(OC1CN2CCC1CC2)C(CO)(c1ccccc1)c1ccccc1` (stereo not given), with inactive: -0.669%; and `COc1ccc(Cl)cc1C(=O)NCC1(N(C)C)CCCCC1`, with inactive: 0.126%.
As to `COc1cccc(C(=O)NCC2(N3CCCCC3)CCCCC2)c1`, the activity change, negative = inhibition is inactive: 1.47%.
For `O=C(NCC1(N2CCCCC2)CCCCC1)c1cccc(Cl)c1`, the activity change, negative = inhibition was inactive: 3.73%.
Consider `CN(C)C1(CNC(=O)c2ccc(Br)cc2)CCCCC1`, for which the activity change, negative = inhibition was inactive: -1.86%.
`COc1cc(C(=O)NCC2(N(C)C)CCCCC2)c([N+](=O)[O-])cc1OC`: the activity change, negative = inhibition was inactive: 3.18%.
